# In ChEMBL document CHEMBL4706691, “Bicyclic Diazepinones as Dual Ligands of the α2δ-1 Subunit of Voltage-Gated Calcium Channels and the Norepinephrine Transporter” (J Med Chem, 2021):
# By UniProt entry, the sequences of proteins in these tests, tags left out.
# UniProt Q9NY47, whole entry: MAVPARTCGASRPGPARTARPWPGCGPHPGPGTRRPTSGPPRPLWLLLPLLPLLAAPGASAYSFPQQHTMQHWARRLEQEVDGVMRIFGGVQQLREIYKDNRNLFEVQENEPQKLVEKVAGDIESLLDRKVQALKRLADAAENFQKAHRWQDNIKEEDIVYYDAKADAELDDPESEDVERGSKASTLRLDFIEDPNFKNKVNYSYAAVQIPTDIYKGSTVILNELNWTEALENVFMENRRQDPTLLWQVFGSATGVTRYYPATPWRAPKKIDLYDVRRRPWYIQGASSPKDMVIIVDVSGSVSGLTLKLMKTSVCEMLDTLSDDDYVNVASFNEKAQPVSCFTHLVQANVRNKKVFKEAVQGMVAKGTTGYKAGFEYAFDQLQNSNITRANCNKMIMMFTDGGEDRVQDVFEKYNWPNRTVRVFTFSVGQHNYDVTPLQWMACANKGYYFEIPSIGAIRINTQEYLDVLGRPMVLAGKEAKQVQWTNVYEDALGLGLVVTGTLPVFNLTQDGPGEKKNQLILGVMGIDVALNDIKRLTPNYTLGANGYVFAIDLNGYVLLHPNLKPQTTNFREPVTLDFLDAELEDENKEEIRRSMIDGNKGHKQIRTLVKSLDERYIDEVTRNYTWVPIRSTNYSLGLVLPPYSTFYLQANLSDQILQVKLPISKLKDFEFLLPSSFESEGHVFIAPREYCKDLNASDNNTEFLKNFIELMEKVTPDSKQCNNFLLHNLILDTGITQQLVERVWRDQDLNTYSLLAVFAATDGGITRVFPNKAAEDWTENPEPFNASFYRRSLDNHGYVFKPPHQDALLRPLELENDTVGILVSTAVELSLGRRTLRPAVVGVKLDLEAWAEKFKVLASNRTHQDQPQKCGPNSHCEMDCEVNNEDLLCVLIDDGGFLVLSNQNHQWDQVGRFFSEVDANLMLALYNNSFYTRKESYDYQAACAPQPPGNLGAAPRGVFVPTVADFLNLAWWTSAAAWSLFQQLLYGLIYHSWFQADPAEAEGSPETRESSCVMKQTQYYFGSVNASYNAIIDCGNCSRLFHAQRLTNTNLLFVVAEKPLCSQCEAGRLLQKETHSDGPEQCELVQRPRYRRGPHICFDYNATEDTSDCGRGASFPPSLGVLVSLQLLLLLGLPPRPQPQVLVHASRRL
# Biological target: Voltage-dependent calcium channel subunit alpha-2/delta-2 (Homo sapiens, UniProt Q9NY47)
# Test: Displacement of [3H]-gabapentin from human Cav alpha2delta2 expressed in HEK293 cell membranes at 10 uM incubated for 60 mins by scintillation counting method
# Conditions: Cell membrane
smiles,measurement,value
CCNc1ncc2c(n1)N(C)CCN(c1cccc(-c3nnc(C)o3)c1)C2,inhibition,70%
